{
  "source": "patent US9133260B2",
  "about": "(priority 2005, dated 2015)",
  "origin": "cited, not measured here",
  "conditions": "subcutaneous, conscious rats, rat weight ~200 g; cited from earlier work",
  "data": [
    {"compound": "CC[C@H](C)[C@H](NC(=O)[C@@H]1CCCN1C(=O)CNC(=O)[C@H](Cc1ccccc1)NC(=O)[C@H](CC(N)=O)NC(=O)[C@H](CC(N)=O)NC(=O)[C@H](CO)NC(=O)[C@H](CO)NC(=O)[C@H](Cc1c[nH]cn1)NC(=O)[C@@H](NC(=O)[C@H](CC(C)C)NC(=O)[C@H](Cc1ccccc1)NC(=O)[C@H](CC(N)=O)NC(=O)[C@H](C)NC(=O)[C@H](CC(C)C)NC(=O)[C@H](CCCNC(=N)N)NC(=O)[C@H](CCC(N)=O)NC(=O)[C@@H](NC(=O)[C@H](C)NC(=O)[C@@H]1CSSC[C@H](NC(=O)[C@@H](N)CCCCN)C(=O)N[C@@H](CC(N)=O)C(=O)N[C@@H]([C@@H](C)O)C(=O)N[C@@H](C)C(=O)N[C@@H]([C@@H](C)O)C(=O)N1)[C@@H](C)O)C(C)C)C(=O)N[C@@H](CC(C)C)C(=O)N1CCC[C@H]1C(=O)N1CCC[C@H]1C(=O)N[C@H](C(=O)N[C@@H](CC(N)=O)C(=O)N[C@H](C(=O)NCC(=O)N[C@@H](CO)C(=O)N[C@@H](CC(N)=O)C(=O)N[C@H](C(=O)N[C@@H](Cc1ccc(O)cc1)C(N)=O)[C@@H](C)O)C(C)C)[C@@H](C)O", "note": "[Pramlintide, ^25,28,29Pro-h-amylin]", "values": [
      {"measurement": "EC(50) inhibition of gastric emptying", "value": 0.07, "unit": "µg"}
    ]}
  ]
}
